Like-named read-outs stand apart in the source and are kept apart here.
What was measured:
[1] = system: human umbilical vein endothelial cell (HUVEC); details: in vitro; cited from earlier work
[2] = system: choroidal neovascularization (CNV); details: cynomolgus monkeys, laser induced CNV; cited from earlier work
[3] = system: subjects with wet AMD; assay: Dose-escalating multicenter clinical study of intravitreal volociximab in combination with ranibizumab; type: in vivo, human; details: initial ten subjects, two doses in combination with ranibizumab
From the text: In one embodiment, the signs and symptoms associated with an ocular disorder (e.g., macular degeneration) may be monitored by assessment via Optical Coherence Tomography (OCT). […] OCT relies upon differential reflections of light to produce 2-dimensional cross-sections of the retina. OCT images are obtained rapidly and have a spatial resolution of approximately 8 mcm. OCT is especially useful for calculating retinal thickness. In another embodiment, the signs and symptoms associated with an ocular disorder (e.g., macular degeneration) may be monitored by assessment via a visual acuity (VA) test. The visual acuity test is used to determine the smallest letters a person can read on a standardized chart or card held 14-20 feet away. This test is done on each eye, one at a time. If necessary, it is then repeated while the subject wears glasses or contacts.
Bulk 25 mg/mL volociximab (also known as M200; PDL BioPharma) is aseptically filled into clinical use vials. A 10 mg/mL solution is prepared by dilution of the 25 mg/mL bulk using the same formulation solution. Stock ranibizumab (Genentech) at 10 mg/mL is aseptically filled into clinical use vials.
This is a dose-escalating, uncontrolled, multiple-dose multicenter study including subfoveal lesions of any subtype secondary to AMD. […]

The chains behind the UniProt entries cited, without tags or fusion partners. Residues count along the entry.
UniProt P08648, 895-1049 limits assumed: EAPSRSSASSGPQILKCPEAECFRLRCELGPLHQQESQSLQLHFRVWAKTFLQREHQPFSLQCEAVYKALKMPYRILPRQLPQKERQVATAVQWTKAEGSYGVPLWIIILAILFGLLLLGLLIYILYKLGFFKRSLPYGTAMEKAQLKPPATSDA
UniProt P08648, 42-894 limits assumed: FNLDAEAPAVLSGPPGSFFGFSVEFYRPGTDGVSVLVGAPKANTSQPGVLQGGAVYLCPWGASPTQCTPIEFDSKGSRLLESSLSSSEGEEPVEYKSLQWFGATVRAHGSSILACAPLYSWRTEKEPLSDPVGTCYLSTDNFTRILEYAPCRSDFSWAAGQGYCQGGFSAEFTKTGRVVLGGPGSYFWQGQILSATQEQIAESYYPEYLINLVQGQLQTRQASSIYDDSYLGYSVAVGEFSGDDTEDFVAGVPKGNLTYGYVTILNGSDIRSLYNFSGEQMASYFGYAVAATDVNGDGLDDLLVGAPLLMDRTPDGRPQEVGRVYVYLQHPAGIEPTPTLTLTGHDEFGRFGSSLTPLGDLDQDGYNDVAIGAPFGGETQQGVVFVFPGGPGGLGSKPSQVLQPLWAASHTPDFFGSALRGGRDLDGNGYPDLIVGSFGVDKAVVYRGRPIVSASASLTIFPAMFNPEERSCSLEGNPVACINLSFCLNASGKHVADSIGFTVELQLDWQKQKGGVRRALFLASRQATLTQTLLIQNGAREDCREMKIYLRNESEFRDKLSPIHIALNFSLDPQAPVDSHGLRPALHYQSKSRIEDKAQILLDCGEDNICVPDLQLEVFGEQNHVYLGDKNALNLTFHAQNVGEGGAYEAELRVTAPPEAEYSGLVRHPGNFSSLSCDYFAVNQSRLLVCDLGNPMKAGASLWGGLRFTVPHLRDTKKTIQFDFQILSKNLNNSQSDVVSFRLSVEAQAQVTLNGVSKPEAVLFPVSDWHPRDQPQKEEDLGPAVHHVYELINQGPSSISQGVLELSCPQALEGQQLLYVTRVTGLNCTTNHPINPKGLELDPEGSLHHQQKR

[4] = system: endothelial cells; details: cited from earlier work
[5] = target: α5β1 integrin (Homo sapiens, UniProt P05556+P08648); details: cited from earlier work
[6] = system: human umbilical vein endothelial cell (HUVEC); details: in vitro; cited from earlier work; remark: listed apart in the source
[7] = system: choroidal neovascularization (CNV); details: rabbits, CNV induced by VEGF/bFGF pellets; cited from earlier work

volociximab: high affinity chimeric monoclonal antibody which inhibits the binding between α5β1 integrin and fibronectin (SEQ ID NO: 3, 4)
HUVEC proliferation [1]: inhibition | anti-angiogenic activity [2]: significant anti-angiogenic activity | safety profile [3]: favorable safety profile | apoptosis induction ([4]; actively proliferating endothelial cells): induces apoptosis | apoptosis induction ([4]; resting endothelial cells): not in resting endothelial cells | binding between α5β1 integrin and fibronectin [5]: inhibits the binding | HUVEC tube formation [6]: inhibition | anti-angiogenic activity [7]: significant anti-angiogenic activity

— patent US20110110932A1, “COMBINATION TREATMENT FOR OCULAR DISEASES” (OPHTHOTECH CORP., priority 2009, published 2011)
